“And” between values parts separate entries of the source, which are not always exact repeats. Equal entries are not always repeated.
Target: activation domain-fused yeast RPB4 protein (RPB4 in JG4-5) (yeast (Saccharomyces cerevisiae)) (UniProt P20433)
Test: two-hybrid interaction trap in yeast, beta-galactosidase assay with and without activation domain-fused RPB4

degree of enhancement of activation (beta-galactosidase assay): 2 fold and 3 fold
Substance: LexA-hsRPB7 fusion protein

Reference: US5770717
